Results reported in patent US20230346884A1, “Molecular Targets for Modulation of Dissociative and Associative States” (The Board of Trustees of the Leland Stanford Junior …, priority 2020, published 2023).

Tested on: layer 5 RSP cells
Test: Ketamine-TRAP brain-wide activity mapping (TRAP2 mice)
Format: in vivo, mouse
Conditions: 50 mg/kg ketamine injections
Experimental: Dissolved 4-OHT (20 mg/mL in ethanol) was mixed with corn oil at a concentration of 10 mg/mL, and ethanol evaporated by vacuum centrifugation (60 minutes). Mice were each placed alone in a novel cage for 30 minutes, to remain for the experiment. Two mice were injected with 50 mg/kg ketamine intraperitoneally, and two mice were injected with an equivalent volume of saline. After 1 hr, all mice were injected with 50 mg/kg tamoxifen, as well as an additional dose of 50 mg/kg ketamine/saline. After 1 hr, a final dose of ketamine/saline was administered. This protocol was designed to ensure that the ketamine-induced oscillation (and associated cFos expression) was occurring throughout the majority of the ˜4 hr post-tamoxifen-injection time window during which TRAP2 labels cells. After 10 days (to allow time for expression of tdTomato), mice were perfused with ice cold PBS and 4% PFA. Coronal sections (50 μm) were taken using a vibratome and imaged on an epifluorescence microscope.

For CNC1(c2ccccc2Cl)CCCCC1=O (stereo not shown) [ketamine], the “Layer-specific recruitment by TRAP2 activity-mapping” value was “layer 5 was specifically recruited”.
